In PMC5733700 (Bioorganic & medicinal chemistry, 2017):

Tests used:
697 cells = assay: Cytotoxicity; format: cell-based; details: Homo sapiens, 120 h, read-out: Cytotoxicity EC50, 697
Loucy cells = assay: Cytotoxicity; format: cell-based; details: Homo sapiens, 120 h, read-out: Cytotoxicity EC50, Loucy

## COc1cc(OC)c2c(=O)[nH]c(-c3cc(C)c(OCCO)c(C)c3)nc2c1 [Compound 3, RVX-208]
697 cells
  EC50: > 5 µM
Loucy cells
  EC50: > 5 µM
